Source: patent US20190336490A1, “COMPOSITIONS AND METHODS FOR INCREASING REMYELINATION” (Frequency Therapeutics, Inc., priority 2018, published 2019)

Test system: oligodendrocyte lineage cells in lysolecithin focal demyelinated lesion
Conditions: 10 mg/kg once daily i.p., 7 days starting 3 days post lesion; relative to vehicle treated mice

CN1CCC[C@@H]1CCO[C@](C)(c1ccccc1)c1ccc(Cl)cc1 [Clemastine]
percentage of mature oligodendrocytes: increases
